Series [1] concerns the target α2AAR (α2A-adrenergic receptor) (Homo sapiens, UniProt P08913). The experiment in a line: α2AAR FLIPR assay (agonist activity). Type of series: cell-based.
Another series has as its target α2AAR (Homo sapiens, UniProt P08913). The series is described as follows: α2AAR binding assay ([3H]-RX 821002 radioligand). The following applies: read-out: α2A affinity (Ki), [3H]-RX 821002 0.5 nM, HEK293 membranes.
The next series addresses P-glycoprotein (P-gp) (Homo sapiens, UniProt P08183). The following applies: tested form: HCl.
The mark [2] stands for this setting: read-out: α2A agonist activity (EC50), α2AAR cell line hosted in HEK293 cells, tested form: TFA.

By UniProt entry, the sequences of proteins in these tests, tags left out.
UniProt P08913, whole entry: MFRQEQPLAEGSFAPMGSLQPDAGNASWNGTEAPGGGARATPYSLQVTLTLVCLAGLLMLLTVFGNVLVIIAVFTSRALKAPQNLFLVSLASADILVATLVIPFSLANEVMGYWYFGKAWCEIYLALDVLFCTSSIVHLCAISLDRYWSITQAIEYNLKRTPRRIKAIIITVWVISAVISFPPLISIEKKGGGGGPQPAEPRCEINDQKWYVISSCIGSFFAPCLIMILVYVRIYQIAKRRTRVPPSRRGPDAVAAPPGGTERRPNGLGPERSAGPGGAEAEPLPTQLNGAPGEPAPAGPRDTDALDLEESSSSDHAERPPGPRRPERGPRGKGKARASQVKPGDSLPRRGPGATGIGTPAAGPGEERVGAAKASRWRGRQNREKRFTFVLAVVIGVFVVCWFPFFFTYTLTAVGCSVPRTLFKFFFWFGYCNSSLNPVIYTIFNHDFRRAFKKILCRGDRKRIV
UniProt P08183, whole entry: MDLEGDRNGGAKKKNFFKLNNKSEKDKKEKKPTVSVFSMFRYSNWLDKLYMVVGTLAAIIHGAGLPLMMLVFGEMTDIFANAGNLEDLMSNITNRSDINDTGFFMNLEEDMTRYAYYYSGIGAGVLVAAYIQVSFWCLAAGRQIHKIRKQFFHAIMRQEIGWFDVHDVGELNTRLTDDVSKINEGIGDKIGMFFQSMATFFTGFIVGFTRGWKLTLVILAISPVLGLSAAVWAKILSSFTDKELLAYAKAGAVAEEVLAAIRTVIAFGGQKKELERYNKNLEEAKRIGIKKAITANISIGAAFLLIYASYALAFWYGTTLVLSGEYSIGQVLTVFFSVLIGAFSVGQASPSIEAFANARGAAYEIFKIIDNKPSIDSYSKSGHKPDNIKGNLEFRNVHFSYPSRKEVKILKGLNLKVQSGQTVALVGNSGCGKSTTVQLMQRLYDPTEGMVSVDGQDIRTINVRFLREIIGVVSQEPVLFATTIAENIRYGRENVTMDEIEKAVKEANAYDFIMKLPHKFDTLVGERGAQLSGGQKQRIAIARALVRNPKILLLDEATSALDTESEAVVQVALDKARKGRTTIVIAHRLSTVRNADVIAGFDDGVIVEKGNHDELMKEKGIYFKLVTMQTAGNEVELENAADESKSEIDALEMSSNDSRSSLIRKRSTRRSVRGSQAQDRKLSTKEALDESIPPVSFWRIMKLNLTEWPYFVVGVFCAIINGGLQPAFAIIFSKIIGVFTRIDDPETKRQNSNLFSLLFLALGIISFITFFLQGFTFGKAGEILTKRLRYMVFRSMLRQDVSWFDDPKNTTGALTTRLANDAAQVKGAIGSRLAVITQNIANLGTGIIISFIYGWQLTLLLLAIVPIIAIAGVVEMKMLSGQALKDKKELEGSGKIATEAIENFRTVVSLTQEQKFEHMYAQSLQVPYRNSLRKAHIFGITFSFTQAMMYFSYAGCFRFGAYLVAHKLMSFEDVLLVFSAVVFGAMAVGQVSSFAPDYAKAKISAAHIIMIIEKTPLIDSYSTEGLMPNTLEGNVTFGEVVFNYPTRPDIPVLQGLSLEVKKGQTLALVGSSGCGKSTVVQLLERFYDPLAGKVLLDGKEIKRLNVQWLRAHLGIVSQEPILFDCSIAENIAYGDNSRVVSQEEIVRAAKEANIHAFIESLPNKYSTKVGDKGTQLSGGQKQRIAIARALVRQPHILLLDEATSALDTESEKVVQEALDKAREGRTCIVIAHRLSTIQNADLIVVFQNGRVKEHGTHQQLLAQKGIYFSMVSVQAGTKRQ

Molecules are shown by their SMILES. Like-named read-outs stand apart in the source and are kept apart here.

Take `COCC(=O)Nc1ccc(CC(c2c[nH]cn2)c2cccc(C)c2C)cc1` (centres unmarked) [compound 195]: the EC50 (in general, the concentration that produces a half-maximal response) in series [1] (setting [2]) lay within 0.05 to 0.25 µM. Besides, at α2AAR (tested form: TFA), the inhibition constant Ki (usually the dissociation constant of the complex between target and ligand, obtained from inhibition or displacement) was in the range of 0.05 to 0.25 µM.

With `Cc1cccc(C(c2cccc(NC(=O)CCN3CCCCC3)c2)c2c[nH]cn2)c1C` (centres unmarked), the 50% effective concentration (EC50) in series [1] (setting [2]) is 0.01 to 0.05 µM. For the same compound, on α2AAR (tested form: TFA), the Ki was less than 0.01 µM.

As to `Cc1cccc(C(Cc2ccc(NC(=O)C3CCOCC3)cc2)c2c[nH]cn2)c1C` (centres unmarked) [compound 157], in series [1] (read-out: α2A agonist activity (EC50), α2AAR cell line hosted in HEK293 cells, tested form: HCl), the EC50 lay in the range of 0.01 to 0.05 µM. Also, the Ki on α2AAR (tested form: HCl) is less than 0.01 µM. Also, the efflux ratio (in general, a quotient of directional permeabilities that is used to spot active efflux) on P-glycoprotein (P-gp) is 10.8.

Take `Cc1cccc(C(CCc2cccc(NS(C)(=O)=O)c2)c2c[nH]cn2)c1C` (centres unmarked): on α2AAR (tested form: TFA), the inhibitory constant (Ki) lay in the range of 0.05 to 0.25 µM.

For `Cc1cccc(C(c2cccc(NC(=O)CC3CCOC3)c2)c2c[nH]cn2)c1C` (single isomer, unassigned), the EC50 in series [1] (setting [2]) is 0.01 to 0.05 µM. Moreover, on α2AAR (tested form: TFA), the Ki is less than 0.01 µM.

For the compound `CONC(=O)c1ccc2c(c1)C(C(NC1=NCCS1)c1ccccc1OC)CC2` (centres unmarked), at α2AAR (tested form: HCl), the Ki was 0.01 to 0.05 µM.

Values taken from patent US20240374573A1, “IMIDAZOLE CONTAINING COMPOUNDS, DERIVATIVES THEREFORE, AND USES THEREOF” (AglaeaPharma Inc., priority 2023, published 2024).
